# Measurements published in patent publication US9169260B2 (MERCK SHARP & DOHME CORP., priority 2011, dated 2015).
# Sequences of proteins named here, by UniProt entry; tags and fusion partners are left off.
# UniProt Q9NWZ3, whole entry: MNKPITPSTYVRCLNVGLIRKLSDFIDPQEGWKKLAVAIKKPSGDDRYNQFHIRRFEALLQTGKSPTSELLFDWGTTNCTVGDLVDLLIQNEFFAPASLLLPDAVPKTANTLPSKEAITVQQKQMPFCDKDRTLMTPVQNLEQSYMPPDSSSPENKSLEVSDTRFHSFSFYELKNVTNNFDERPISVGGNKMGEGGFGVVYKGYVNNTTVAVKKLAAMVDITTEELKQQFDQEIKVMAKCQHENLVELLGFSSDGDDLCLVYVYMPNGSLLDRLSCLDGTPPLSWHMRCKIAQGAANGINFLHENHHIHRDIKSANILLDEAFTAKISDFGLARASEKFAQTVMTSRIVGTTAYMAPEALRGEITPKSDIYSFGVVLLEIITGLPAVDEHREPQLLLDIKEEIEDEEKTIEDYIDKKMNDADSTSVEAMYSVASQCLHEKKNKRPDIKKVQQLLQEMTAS
# Biological target: GST tagged IRAK-4 (Homo sapiens (Human), UniProt Q9NWZ3)
# Experiment: IRAK-4 Kinase Assay (IMAP fluorescence polarization)
# Type: biochemical
# Procedure: The kinase activity of IRAK-4 is determined by its ability to catalyze the phosphorylation of a fluorescent polypeptide substrate. The extent of phosphorylation is measured using the IMAP technology (Molecular Devices) where the phosphorylated fluorescent substrate binds to the large M(III)-based nanoparticles which reduces the rotational speed of the substrate and thus increases its fluorescent polarization (FP).
# 20 μl reaction mixture contains 10 mM TriHCl, pH 7.2, 0.5 nM GST tagged IRAK-4 (SignalChem), 100 nM fluorescent peptide substrate (RP7030, Molecular Devices), 100 μM ATP, 1 mM DTT, 1 mM MgCl2, and 0.01% Tween 20. The reaction is initiated by the addition of ATP. After incubation for 30 minutes at 25° C., 60 μl of Progressive IMAP Reagent (Molecular Devices) is added to stop the reaction. Change in RP7030's FP is determined by a FP reader (Analyst HT, LH, BioSystems).
smiles,measurement,value
"Cc1ccc(-n2nc(C3CCCN(Cc4ccc(C5(C#N)COC5)cc4)C3)cc2NC(=O)c2cnn3cccnc23)cc1 (stereo not shown) [Example 293, N-[3-{1-[4-(3-cyanooxetan-3-3/1)benzyl]piperidin-3-yl}-1-(4-methylphenyl)-1H-pyrazol-5-yl]pyrazolo[1,5-a]pyrimidine-3-carboxamide]",IC50,< 1 µM
